Assay results from ChEMBL document CHEMBL1125838, “Conformational restriction of the phenylalanine residue in a cyclic opioid peptide analogue: effects on receptor selectivity and stereospecificity” (J Med Chem, 1991).

Sequences of proteins named here, by UniProt entry; tags and fusion partners are left off.
UniProt P33535, whole entry: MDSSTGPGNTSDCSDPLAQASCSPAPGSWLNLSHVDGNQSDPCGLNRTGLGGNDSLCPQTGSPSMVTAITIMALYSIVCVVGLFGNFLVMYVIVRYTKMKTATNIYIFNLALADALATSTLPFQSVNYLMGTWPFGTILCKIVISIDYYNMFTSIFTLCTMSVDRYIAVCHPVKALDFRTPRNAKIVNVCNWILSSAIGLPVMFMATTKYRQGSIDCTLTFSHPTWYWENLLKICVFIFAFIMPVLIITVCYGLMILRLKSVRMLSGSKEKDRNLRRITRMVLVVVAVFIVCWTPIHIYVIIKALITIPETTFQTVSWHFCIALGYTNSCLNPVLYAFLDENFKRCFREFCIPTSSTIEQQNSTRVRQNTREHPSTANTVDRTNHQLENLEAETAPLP

Target: Mu-type opioid receptor (Rattus norvegicus, UniProt P33535)
Assay: Displacement of [3H]DAGO from rat brain membrane opioid receptor mu

`NC(=O)[C@@H]1CCC(=O)NCCC[C@@H](NC(=O)[C@@H](N)Cc2ccc(O)cc2)C(=O)N[C@H](Cc2ccccc2)C(=O)N1` gave a Ki of 1660 nM.
